Test results from ChEMBL document CHEMBL1121477, “Noval antitumor nitrosoureas and related compounds and their reactions with DNA” (1980).

Assay: Compound was evaluated for its ability to exhibit alkylating property toward DNA at 5 mM in 180 min
Assay type: functional
Method in brief: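 Alkylation was measured with PM2 covalently closed circular DNA (1.2 A280 units, 90% CCC) and 5 mM agent in 200 µL at 37 °C. Aliquots were taken into 20 mM potassium phosphate pH 11.8, 0.4 mM EDTA and 0.5 µg/mL ethidium, heated at 96 °C for 4 min, then rapidly cooled. Fluorescence loss relative to control gives the extent of alkylation.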

ClCCOP(OCCCl)OCCCl
Alkylation: 0%
